# Test results: US4661471A, “Method of inhibiting and inducing human platelet aggregation” (New England Deaconess Hospital, priority 1984, dated 1987)
# System: human platelets
# Experiment: Aggregation of ADP-treated platelets separated from plasma proteins by the synthetic peptide-albumin conjugate, in the absence of fibrinogen
# Format: cell-based
# Settings: 10^8 platelets, ten micromoles of ADP, no plasma proteins; 2.5 micromoles of conjugate
# Procedure: In this experiment, a synthetic clumping molecule formed of a human serum albumin backbone having a plurality of sulfhydral-linked cysteinyl heptadecapeptides attached thereto was tested to determine whether it would cause aggregation of platelets. Ten micromoles of ADP was added to 10^8 platelets which had been separated from the plasma proteins.
substance,measurement,value
human serum albumin: negative control: human serum albumin prepared the same way as the conjugate but lacking the heptadecapeptide side groups [reference compound],aggregation of platelets caused by the substance,not to aggregate the platelets
